scFv variants of Ab-14 (heavy chain) against a SARS-CoV-2 spike peptide

The measurements come from Li et al. 2023 (doi:10.1038/s41467-023-39022-2) through the FLAb antibody collection.

Target: peptide PDVDLGDISGINAS, taken from heptad repeat 2 (HR2) of SARS-CoV-2 spike.

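The parent was found by panning a naive human phage display library on the peptide. Designed CDR sequences, proposed from the first random library and measured here. Several design methods are mixed in this list. The assay is AlphaSeq: two haploid yeast populations carry antibody and antigen on their surface. Pairs that bind mate more often; barcode pairs of the diploids are counted by sequencing. Read counts were normalised to the haploid input and turned into Kd by a linear fit to BCL2-family pairs of known affinity, for each replicate. Mating was done six times.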

Parent scFv Ab-14: VH joined to VL by a (GGGGS)3 linker. Changes lie in the heavy chain CDRs alone.
VH: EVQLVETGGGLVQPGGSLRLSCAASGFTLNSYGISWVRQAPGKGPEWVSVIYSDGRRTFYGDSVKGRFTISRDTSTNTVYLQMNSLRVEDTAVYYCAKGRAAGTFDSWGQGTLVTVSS
VL: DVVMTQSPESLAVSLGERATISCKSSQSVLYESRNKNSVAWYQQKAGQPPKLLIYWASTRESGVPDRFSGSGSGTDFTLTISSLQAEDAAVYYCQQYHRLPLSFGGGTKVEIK

The parent's heavy chain CDRs are GFTLNSYGIS, VIYSDGRRTFYGDSVK, GRAAGTFDS; each variant's own CDRs replace them letter for letter.
Values are log10 of the apparent Kd in nM; lower means stronger binding.
The mean shown is taken over the replicates in which the pair was detected.
Where no diploid with the target was found in that replicate, the entry reads "n.d.": below detection, most likely a poor binder, though not proof of it.
Of ten entries with the parent sequence, four were seen in most replicates (averages 0.34 to 2.37), three in one and three in none, so single entries are noisy.

| # | CDR-H1 | CDR-H2 | CDR-H3 | log10 Kd, replicates | mean, log10 nM |
|---|---|---|---|---|---|
| 1 | GFDLEDYGIS | VIYADGKRTAYADSVK | GENAGTFDV | 0.61 / -0.28 / 0.03 / -0.40 / -0.14 / 0.64 | 0.08 |
| 2 | GFDLDEYGIS | VIYADGIRTHYSNSVK | GTIGGTFFQ | 1.11 / n.d. / 0.63 / 0.93 / n.d. / 1.04 | 0.93 |
| 3 | GFTLNSYGIS | VIYSDGRRTFYADSVK | GRAAGTFDN | -0.19 / 0.08 / 0.66 / 0.29 / 0.49 / 0.33 | 0.28 |
| 4 | GFDLNEYGIS | VIYADGRRTFYADSVK | GNLAGTFSV | -0.70 / -0.83 / -0.89 / -0.70 / -0.97 / -0.58 | -0.78 |
| 5 | GFDLNEYGIS | VIYADGMRTAYAESVK | GENAGTFDL | -0.06 / 0.07 / -0.02 / -0.88 / -0.04 / -0.40 | -0.22 |
| 6 | GYDIQDYGIS | VIYADGVRVAYHDSVK | GQMAGFFLL | n.d. / n.d. / n.d. / n.d. / n.d. / n.d. | n.d. |
| 7 | GFDLNEYGIS | VIYADGVRTAYADSVK | GQVAGTFDI | -0.18 / -0.28 / -0.56 / -0.67 / -0.26 / 0.07 | -0.31 |
| 8 | GFDLDEYGIS | VIYADGRRTAYADSVK | GGNAGTFDV | 0.17 / -0.07 / -0.31 / -0.05 / -0.29 / 0.12 | -0.07 |
| 9 | GFSLNSYGIS | VIYSDGRRTFYGDPVK | GKIAGTFDS | 0.54 / 0.36 / 0.20 / 0.36 / 0.57 / 0.48 | 0.42 |
| 10 | GFDLNEYGIS | VIYADGMRTFYADDVK | GNTAGTFDI | -0.12 / -0.71 / -0.54 / -0.65 / -0.13 / -0.22 | -0.40 |
| 11 | GFDLNEYGIS | VIYADGMRKAYADNVK | GNVAGTFDV | -0.31 / -0.61 / -0.71 / -0.59 / -0.52 / -0.96 | -0.62 |
| 12 | GFDLNEYGIS | VIYADGFRTSYTDSVK | GEVAGTFDS | -0.21 / -0.22 / -0.37 / -0.19 / -0.38 / 0.01 | -0.22 |
| 13 | GFTLKSYGIS | VIYSDGRRTHYGDSVK | GRAAGTFDM | n.d. / n.d. / n.d. / n.d. / n.d. / n.d. | n.d. |
| 14 | GFDLDEYGIS | VIYADGMRKAYADSVK | GNTAGTFDV | -0.56 / -0.50 / -0.67 / -0.47 / -0.53 / -0.49 | -0.54 |
| 15 | GFTLNMYGIS | VIYSDGVRTFYGDDVK | GRAAGTFDW | n.d. / n.d. / n.d. / n.d. / n.d. / n.d. | n.d. |
| 16 | GFTLNSYGPS | VIYSDGRRTFYGDSVK | GRGAGTFDS | 1.02 / n.d. / 1.12 / n.d. / n.d. / n.d. | 1.07 |
| 17 | GFDLNEYGIS | VIYADGRRTFYSDSVK | GEAAGTFDN | 1.02 / 0.35 / 0.33 / 0.12 / 0.19 / 0.53 | 0.42 |
| 18 | GFDLNEYGIS | VIYADGRRTFYADSVK | GSNAGTFDQ | -0.11 / -0.45 / -0.49 / -0.53 / -0.33 / -0.45 | -0.39 |
| 19 | GFWLNEYGIS | VIYSDGRRTFYADSVK | GRTAGTFDS | 0.88 / -0.05 / 0.22 / -0.20 / -0.02 / -0.09 | 0.12 |
| 20 | GFTLLSYGIS | VIYSDGRRTFYGDQVK | GRAASTFDS | n.d. / n.d. / n.d. / n.d. / n.d. / n.d. | n.d. |
| 21 | GPTLNSYGIS | VIYSDGERTFYGDSVK | GRAAITFDS | n.d. / n.d. / n.d. / n.d. / n.d. / n.d. | n.d. |
| 22 | GFTLNEYGIS | VIYSDGRRSFYADSVK | GHAAGTFDN | 0.71 / 0.77 / 1.11 / 0.88 / 0.85 / 0.71 | 0.84 |
| 23 | GFDLEEYGIS | VIYADGRRTFYSDSVK | GEAAGTFDI | -0.14 / -0.07 / -0.29 / -0.59 / -0.30 / -0.27 | -0.28 |
| 24 | GFTLESYGGS | VIYSDGRRTSYLDSVK | GREPGTFDS | n.d. / n.d. / n.d. / n.d. / n.d. / n.d. | n.d. |
| 25 | GFDLESYGIS | VIYADGYRSAYAQNVK | GGHAGGFHV | n.d. / n.d. / n.d. / n.d. / n.d. / n.d. | n.d. |
| 26 | GFDLNEYGIS | VIYADGMRTAYVDSVK | GQVAGTFDV | 0.22 / -0.07 / -0.46 / -0.17 / -0.54 / -0.32 | -0.22 |
| 27 | GFSLNSYGIS | VIYSDGRRTFYADSVK | GSEAGTFDN | -0.36 / -0.49 / -0.24 / -0.40 / -0.41 / -0.49 | -0.40 |
| 28 | GFTLNSYGIS | VIYSDGKRTFYIDSVK | GKAAGTFDV | -0.12 / -0.31 / 0.02 / -0.23 / 0.12 / -0.02 | -0.09 |
| 29 | GFTLNSYGIS | VIYSDGRRTFYGDSVK | GKAAFTFES | n.d. / n.d. / n.d. / n.d. / n.d. / n.d. | n.d. |
| 30 | GFTLNDYGIS | VIYSDGRRTMYGDSVK | GRVAGTFDS | 0.34 / 0.52 / -0.02 / -0.11 / 0.03 / 0.33 | 0.18 |
| 31 | GFDLNSYGIS | VIYSDGRRTFYRDSVK | GRTAGTFDS | 0.85 / 0.62 / 0.99 / 0.42 / 0.81 / 1.38 | 0.84 |
| 32 | GFTLNSYGIS | VIYSDGRRTFYGDSVK | GAAAGQNTS | n.d. / n.d. / n.d. / n.d. / n.d. / n.d. | n.d. |
| 33 | GFTLNSYGIS | VIYSDGRRTIYIDSVK | GRNALTFDS | n.d. / n.d. / n.d. / n.d. / n.d. / n.d. | n.d. |
| 34 | GFDLNEYGIS | VIYADGMRTFYDDSVK | GQLAGTFDT | -0.39 / -0.40 / -0.33 / -0.38 / -0.16 / 0.09 | -0.26 |
| 35 | GVTINSYGIS | VIYSDGRRTFYGDSVK | GRAAGTFDS | n.d. / n.d. / n.d. / n.d. / n.d. / n.d. | n.d. |
| 36 | GFDLNEYGIS | VIYADGRRTQYIDSVK | GEQAGTFDL | 1.27 / 0.82 / 1.45 / 0.34 / 0.55 / 1.18 | 0.93 |
| 37 | GEDLDEYGIS | VIYADGRRQYYANNVK | GDIADVFDL | n.d. / n.d. / 1.81 / 3.48 / n.d. / n.d. | 2.65 |
| 38 | SFSLNSYGIS | VIYSDGRRTFYGDSVK | GQTAGTFDS | n.d. / n.d. / 2.04 / 2.05 / n.d. / n.d. | 2.04 |
| 39 | GFDLNEYGIS | VIYADGVRTAYADSVK | GEVAGTFDI | -0.39 / -0.48 / -0.40 / -0.38 / -0.51 / 0.07 | -0.35 |
| 40 | GFTLNEYGIS | VIYSDGRRTAYQDSVK | GRAAGTFDS | -0.19 / -0.22 / 0.31 / -0.04 / -0.32 / -0.51 | -0.16 |
| 41 | GFDLNEYGIS | VIYADGQRTAYADDVK | GNTAGTFDI | n.d. / n.d. / n.d. / n.d. / n.d. / n.d. | n.d. |

Excerpt, the final 3 entries:

CDR-H1	CDR-H2	CDR-H3	log10 Kd, replicates	mean, log10 nM
GFDLNEYGIS	VIYADGVRTAYADSVK	GEVAGTFDI	-0.39 / -0.48 / -0.40 / -0.38 / -0.51 / 0.07	-0.35
GFTLNEYGIS	VIYSDGRRTAYQDSVK	GRAAGTFDS	-0.19 / -0.22 / 0.31 / -0.04 / -0.32 / -0.51	-0.16
GFDLNEYGIS	VIYADGQRTAYADDVK	GNTAGTFDI	n.d. / n.d. / n.d. / n.d. / n.d. / n.d.	n.d.

In the paper, a design with two or fewer of six values counts as a poor binder.
Nonspecific signal, from three strains lacking the peptide, appeared in 1% of pairings of all heavy chain designs, centred on 2.08 (5% of these signals below 0.84); values are not corrected for it.
A sequence measured in both rounds can read differently, since the two assays cover different ranges.